# Assay results from ChEMBL document CHEMBL1136242, “Arachidonylsulfonyl derivatives as cannabinoid CB1 receptor and fatty acid amide hydrolase inhibitors” (Bioorg Med Chem Lett, 2003).
# Sequences of proteins named here, by UniProt entry; tags and fusion partners are left off.
# UniProt P20272, whole entry: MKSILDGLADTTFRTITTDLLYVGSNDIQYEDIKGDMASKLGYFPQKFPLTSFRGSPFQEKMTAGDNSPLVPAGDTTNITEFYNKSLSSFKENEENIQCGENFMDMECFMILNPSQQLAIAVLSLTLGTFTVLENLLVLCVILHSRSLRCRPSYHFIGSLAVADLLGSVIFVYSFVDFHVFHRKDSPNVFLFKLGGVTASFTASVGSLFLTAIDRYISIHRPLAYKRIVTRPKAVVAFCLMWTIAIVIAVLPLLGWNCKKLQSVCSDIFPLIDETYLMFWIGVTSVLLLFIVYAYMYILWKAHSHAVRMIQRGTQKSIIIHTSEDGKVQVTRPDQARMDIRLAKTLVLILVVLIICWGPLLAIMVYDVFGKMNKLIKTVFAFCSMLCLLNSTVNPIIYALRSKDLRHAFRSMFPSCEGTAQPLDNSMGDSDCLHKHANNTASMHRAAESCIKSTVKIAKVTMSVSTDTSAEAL
# UniProt P47746, whole entry: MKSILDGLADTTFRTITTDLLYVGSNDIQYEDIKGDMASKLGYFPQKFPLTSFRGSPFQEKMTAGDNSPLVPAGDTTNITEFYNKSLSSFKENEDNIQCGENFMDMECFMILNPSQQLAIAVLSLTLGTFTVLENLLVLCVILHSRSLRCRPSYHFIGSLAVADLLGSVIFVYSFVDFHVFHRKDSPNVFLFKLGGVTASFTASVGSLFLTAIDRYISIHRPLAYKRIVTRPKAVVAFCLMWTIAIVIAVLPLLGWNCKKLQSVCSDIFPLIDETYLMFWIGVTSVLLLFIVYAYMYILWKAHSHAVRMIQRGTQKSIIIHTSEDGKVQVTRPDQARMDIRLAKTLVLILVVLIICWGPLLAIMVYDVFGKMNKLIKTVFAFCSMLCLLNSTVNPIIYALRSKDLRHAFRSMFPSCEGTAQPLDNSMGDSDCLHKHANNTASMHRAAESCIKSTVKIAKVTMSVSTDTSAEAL
# Legend:
# [1] = molecular target: Cannabinoid receptor 1 (Rattus norvegicus, UniProt P20272); test: Binding affinity towards Cannabinoid receptor 1 was determined using [3H]-CP- cannabinoid as radioligand with rat brain membrane in the presence of PMSF
# [2] = molecular target: Cannabinoid receptor 1 (Mus musculus, UniProt P47746); test: Binding affinity towards Cannabinoid receptor 1 was determined using [3H]-CP- cannabinoid as radioligand with mouse brain membrane in the presence of PMSF
compound,measurement,setting,value
CCCCC/C=C\C/C=C\C/C=C\C/C=C\CCCC(=O)NCCO [ANANDAMIDE],pIC50,[1],7.40
same,pIC50,[2],7.41

# pIC50: −log10 of the molar value.
